Assay: Experiment 1: crystallization of acid addition salts of (S)-piperidine compound (I)
Assay type: physicochemical
Settings: acid molar ratio 1
Experimental: (S)-Piperidine compound of the formula (I) was dissolved in an organic solvent, and after adding an acid shown in Table 3 to make a uniform solution, the mixture was allowed to stand. When no precipitate is obtained, after the solvent was removed, a less polar solvent was added to the residue and the mixture was allowed to stand again. Except for the case where the acid addition salt is oily or syrupy, the obtained solid material was collected by filtration and dried under reduced pressure. Characteristics of the resulting various kinds of acid addition salts are oily product or hygroscopic crystals for the most of the cases as shown in Table 3.

Succinic acid
Characteristics of acid addition salt: Oily product

— patent US7282589B2, “Acid addition salt of optically active piperidine compound and process for preparing the same” (UBE Industries, Ltd., priority 1996, dated 2007)
